Results on 1 compound are retold here after paper PMC6002439, “Inhibitory influence of natural flavonoids on human protein kinase CK2 isoforms: effect of the regulatory subunit” (Molecular and Cellular Biochemistry, 2017).

Amino acid sequences for entries named in this document (tags omitted).
UniProt P68400, whole entry: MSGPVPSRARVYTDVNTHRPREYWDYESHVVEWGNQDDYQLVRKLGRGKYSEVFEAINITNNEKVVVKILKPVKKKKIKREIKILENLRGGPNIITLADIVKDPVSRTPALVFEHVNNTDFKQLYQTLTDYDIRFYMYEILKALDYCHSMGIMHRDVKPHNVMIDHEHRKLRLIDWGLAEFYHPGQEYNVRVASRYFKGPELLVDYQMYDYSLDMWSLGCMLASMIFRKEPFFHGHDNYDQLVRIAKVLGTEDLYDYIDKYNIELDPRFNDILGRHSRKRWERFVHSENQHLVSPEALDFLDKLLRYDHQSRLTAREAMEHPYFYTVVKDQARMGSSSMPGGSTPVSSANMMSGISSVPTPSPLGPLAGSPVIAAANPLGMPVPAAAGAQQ

The structures appear in SMILES notation.

The assay addresses T1, CK2α2β2 (Homo sapiens, UniProt P68400).
T1 construct: GST (N); made in house; host or cells: E. coli BL21(DE3)trxB
As to the kind of experiment: CK2 activity, phosphorylation of yeast P2B protein substrate, CK2α2β2 holoenzyme. The assay is classed as biochemical. The conditions noted are these: 10 μM yeast P2B as substrate, 20 µM ATP. The procedure: CK2α2β2 and CK2α′2β2 holoenzymes were purified as described elsewhere. Briefly, both catalytic subunits were overexpressed as GST fusion proteins, whereas the regulatory subunit was expressed as His-tagged protein. E. coli BL21(DE3)trxB cells (Novagen) harboring the plasmid pGEX-3X::CSNK2A1, pGEX-3X::CSNK2A2 or pET28a::CSNK2B were grown until OD600 = 0.6 at 37 °C. Next, IPTG was added to the final concentration of 0.2 mM; cultures were continued at room temperature for 4 h and then centrifuged at 5000×g for 10 min. Obtained bacterial pellets were mixed prior to lysis. Cells were disrupted by sonication and the supernatant was purified using glutathione-Sepharose (Pharmacia Biotech). Fractions containing the CK2 holoenzyme were pooled and dialysed against 50 mM Tris/HCl buffer pH 7.5 supplemented with 6 mM β-mercaptoethanol and 30% glycerol. The obtained protein preparations were used in enzymatic assays.
CK2 activity was determined in a standard reaction mixture (40 μL of final volume) containing 20 mM Tris–HCl buffer, pH 7.5, 15 mM MgCl2, 6 mM β-mercaptoethanol, and 20 μM [γ-^32P]ATP (specific radioactivity 500–1000 cpm/pmol) in the presence of 10 μM yeast P2B as substrate. […] The phosphate incorporation level in the P2B protein was estimated by cutting off the corresponding band and measuring the radioactivity in a scintillation counter (Perkin-Elmer).

The IC50 is the concentration that inhibits the measured activity by half. Higher therefore signals lower potency. On to `O=c1cc(-c2ccc(O)cc2)oc2cc(O)cc(O)c12` [Compound 4, apigenin], for which the concentration for half-maximal inhibition (IC50) was 1500 ± 100 nM.
